Reference: ChEMBL document CHEMBL4673183, “Hit-to-lead optimization of a benzene sulfonamide series for potential antileishmanial agents” (RSC Med Chem, 2020)

Experiment: Selectivity ratio of IC50 for Antileishmanial activity against amastigote stage of Leishmania donovani MHOM/ET/67/L82 infected in mouse peritoneal macrophages to IC50 for Antileishmanial activity against amastigote stage of Leishmania infantum MHOM/MA(BE)/67/ITMAP263 infected in mouse peritoneal macrophages
Type: functional

Structure (SMILES)	Ratio IC50
CCCCCOc1cc(C)c(Cl)cc1S(=O)(=O)NCc1cccs1	>100
COc1cc(S(=O)(=O)N(Cc2ccccc2)Cc2ccccc2)c(OC)cc1C	>100
CCCCCOc1cc(C)c(C)cc1S(=O)(=O)NC1CCCC1	>100
